From patent publication US20260115305A1, “LINKERS, CONJUGATES AND APPLICATIONS THEREOF” (GENEQUANTUM HEALTHCARE (SUZHOU) CO., LTD., priority 2022, published 2026)

What was measured:
[1] = system: JIMT-1 tumor cells; test: Effect of ADC-2, ADC-3 and Enhertu in JIMT-1 CDX model in vivo; design: species or system mouse; conditions: 5 mg/kg
Protocol: Treatments were started on day 10 after tumor inoculation when the average tumor volume reached 200 mm^3. The mean tumor volume of the vehicle control group reached 1,474 mm^3 on day 35 after administration. T/C and TGI values were calculated using tumor volume. The calculation formula is as follows: T/C %=TRTV/CRTV×100% (TRTV: RTV of the treatment group; CRTV: RTV of the vehicle control group). The relative tumor volume (RTV) was calculated based on the results of tumor measurement, and the calculation formula was RTV=Vt/V0, where V0 was the average tumor volume measured at the time of grouping (i.e., D0), Vt was the average tumor volume at one measurement, and TRTV and CRTV took the same day of data. Calculation of TGI (%): TGI (%)=[1−(average tumor volume at the end of administration of a treatment group−average tumor volume at the beginning of administration of the treatment group)/(average tumor volume at the end of treatment of the vehicle control group−the average tumor volume at the beginning of treatment of the vehicle control group)]×100%.

[2] = patients; cited from earlier work

Enhertu
antitumor activity in JIMT-1 model ([1]; FIG. 3): significant antitumor activity
mean tumor volume ([1]; day 35): 494 mm^3
T/C ([1]; day 35 after administration): 33.51%
TGI ([1]; day 35 after administration): 76.90%
interstitial lung disease [2]: more than 10%
